Measured values published in US10328116B2, “Combinations of proteasome inhibitors and cyclic peptides” (BIG DNA LTD, priority 2014, dated 2019).

System: T47D breast cancer cell line
Test: Sulforhodamine B viability, isobologram and combination index in T47D cells (Examples 4-5)
Conditions: Homo sapiens, read-out: Bortezomib (M) resulting in 50% reduction in viability, single agent (IC50)
Experimental: For assessment of combined BTZ and cilengitide toxicity, T47D cells were seeded at a density of 7500 cells/cm^2 in 96-well cell culture plates and incubated for 24 hours. Cilengitide was diluted to 20 μM in complete DMEM, then 3 serial tenfold dilutions of this were performed in complete DMEM (2 μM, 200 nM and 20 nM). Complete DMEM containing no cilengitide was provided for negative controls.
These dilutions (or DMSO for wells containing no BTZ) were added to aliquots of complete DMEM containing 0-20 μM cilengitide for a 1/150 dilution. Aliquots (0.1 mL) of each mixture were added to wells already containing 0.1 mL medium (in duplicate), resulting in a matrix of cilengitide (10 nM-10 μM) and/or BTZ (1 nM-10 μM) or neither agent (diluent only).
OD570nm readings were divided by those resulting from negative control (diluent only) wells and expressed as a percentage. Three independent replicates of this experiment were carried out.
The isoboles were obtained similarly by extrapolation of points representing 50% reduction in viability from line graphs of % viability versus concentration of one agent at variable concentration with the other agent supplied at a fixed concentration. […]

Question: For `CC(C)C[C@H](NC(=O)[C@H](Cc1ccccc1)NC(=O)c1cnccn1)B(O)O` [Bortezomib], which IC50 is on record?
Answer: The IC50 was 8.9e-08 M.
